One assay has as its target T1, 5-HT1A receptor (Homo sapiens, UniProt P08908).
T1 construct: expressed in transfected cells; host or cells: HEK293
Put plainly: Intrinsic activity, FLIPR calcium assay, HEK293/5-HT1A. The conditions noted are these: agonist mode, n = 3. Format: cell-based.

Amino acid sequences for entries named in this document (tags omitted).
UniProt P08908, whole entry: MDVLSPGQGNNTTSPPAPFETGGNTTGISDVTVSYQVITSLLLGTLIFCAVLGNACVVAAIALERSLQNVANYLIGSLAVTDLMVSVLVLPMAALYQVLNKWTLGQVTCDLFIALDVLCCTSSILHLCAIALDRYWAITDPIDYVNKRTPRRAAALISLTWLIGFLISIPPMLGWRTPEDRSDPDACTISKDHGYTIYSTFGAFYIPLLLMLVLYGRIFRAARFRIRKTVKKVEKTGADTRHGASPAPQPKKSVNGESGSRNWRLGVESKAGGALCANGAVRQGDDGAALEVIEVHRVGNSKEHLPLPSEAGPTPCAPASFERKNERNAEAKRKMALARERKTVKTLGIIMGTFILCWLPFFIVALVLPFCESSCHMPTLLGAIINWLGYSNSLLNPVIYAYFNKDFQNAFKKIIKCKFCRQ
UniProt P28223, whole entry: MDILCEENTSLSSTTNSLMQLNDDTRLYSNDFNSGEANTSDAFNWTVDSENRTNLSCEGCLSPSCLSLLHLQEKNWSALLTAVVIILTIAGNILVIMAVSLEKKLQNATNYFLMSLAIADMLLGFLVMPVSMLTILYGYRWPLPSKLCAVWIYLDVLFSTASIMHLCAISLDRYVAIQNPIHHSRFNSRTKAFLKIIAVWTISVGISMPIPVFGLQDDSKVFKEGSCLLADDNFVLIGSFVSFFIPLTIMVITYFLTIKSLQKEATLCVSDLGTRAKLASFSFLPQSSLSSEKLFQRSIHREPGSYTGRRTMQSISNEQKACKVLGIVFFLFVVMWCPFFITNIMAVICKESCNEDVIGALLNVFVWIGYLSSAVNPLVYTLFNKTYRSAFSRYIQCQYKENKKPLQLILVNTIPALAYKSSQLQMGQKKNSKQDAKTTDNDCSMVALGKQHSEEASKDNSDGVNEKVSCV

Another assay deals with 5-HT2A receptor (Homo sapiens, UniProt P28223). Put plainly: Intrinsic activity, FLIPR calcium assay, HEK293/5-HT2A. The conditions noted are these: agonist mode, n = 3.

Molecules are shown by their SMILES.

Experimental findings from PMC7571155, “Design, Synthesis and Biological Investigation of Flavone Derivatives as Potential Multi-Receptor Atypical Antipsychotics” (Molecules, 2020) are described below.

On to `NCCc1c[nH]c2ccc(O)cc12` [Compound 5-HT, reference compound], for which the results for the “Activation (10 μM, %)” value at 5-HT1A receptor and on 5-HT2A receptor were 99.7 ± 3.8% and 100.2 ± 2.6%, respectively.
